The text below walks through data of US20130252821A1, “METHODS AND COMPOSITIONS FOR THE TREATMENT AND DIAGNOSIS OF DISEASES CHARACTERIZED BY VASCULAR LEAK, HYPOTENSION, OR A PROCOAGULANT STATE” (Beth Israel Deaconess Medical Center, Inc., priority 2005, published 2013).

Data set [1] can be described thus: Clinical signs of vascular leak syndrome in patients receiving HD IL-2. The data set is classed as in vivo, human. An excerpt:
(§1) Over a 6 month period at Beth Israel Deaconess Medical Center we prospectively collected discarded serum and plasma samples from oncology patients receiving high dose IL-2. In our first feasibility protocol on 4 patients, we collected only Day 1—before HD IL-2 and Day 6 (after HD IL-2). After detailing these promising results, we then collected bloods before IL-2 infusion and with each successive days morning labs. Whenever possible, we also obtained discarded blood from all follow up outpatient appointments. All identifying information was removed and data was encoded to protect patient privacy. Clinical data was collected on each patient by chart review. This study was approved by the institutional IRB.

The conditions of data set [2]: cited from earlier work; for response rate: metastatic renal cell carcinoma and melanoma.
Data set [3] has as its system Ang-2. Put plainly: Serum Ang-2 ELISA in patients receiving HD IL-2. Type of data set: in vivo, human. As for the experimental part:
For the pilot sepsis study, weekday admissions to the BIDMC intensive care unit were screened daily for a two-month period and enrolled if they met criteria for sepsis (SIRS+evidence of infection). SIRS was defined by the presence of 2 of the following 4: (1) temperature<36° C. or >38° C.; (2) heart rate>90 beats/minute; (3) respiratory rate>20 breaths/minute or PaCO2<32 mmHg; (4) white blood cell count>12,000 cells/mm', <4000 cells/mm^3, or >10% immature forms. Severe sepsis was defined by the presence of shock or multi-organ dysfunction. Serum was aliquoted in a sterile fashion into cryo-vial tubes and stored at −80° C. prior to ELISA. Stable Ang-2 signal was confirmed through several freeze-thaw cycles. All data were encrypted to protect patient privacy. For the pilot HD IL-2 study, patients receiving HD IL-2 provided informed consent permitting access to serum and clinical data which were processed as outlined above. Serum and clinical data were collected in accordance with BIDMC IRB approved protocols.
Ang-2 was measured in patient serum by sandwich ELISA using the reagents and protocol supplied with the human Ang-2 ELISA kit (R&D systems, Minneapolis, Minn.).
as §1
Ang-2 was measured in serum samples from patients by sandwich ELISA using the reagents and protocol supplied with the human Ang-2 ELISA kit (R&D Systems, Minneapolis, Minn., United States). Preliminary experiments confirmed the stability of Ang-2 in serum for 6-12 hours at room temperature as well as its stability through several freeze-thaw cycles.
In general terms: An ELISA detects its analyte on a solid surface through an enzyme-linked reagent.

Data set [4] deals with VEGF. Kind of data set: Serial free VEGF levels in patients on HD IL-2. Conditions: 8 subjects on HD IL-2. The data set is classed as in vivo, human.
Text: as §1
Of note, four patients received an anti-VEGF agent bevacizumab two weeks before starting HD IL-2 and we also collected baseline, bevacizumab treated, and HDIL2 protocol samples on these patients.

[5] abbreviates: individual patients 1-14 on HD IL-2, listed as IL2.

“And” between values parts separate entries of the source, which are not always exact repeats. Identical values can stand only once. Like-named read-outs stand apart in the source and are kept apart here.

For “HD IL-2: High-dose interleukin-2, FDA-approved therapy for metastatic renal cell cancer”, in data set [1] (14 patients), the hypotension result was “All patients had hypotension requiring IVF boluses”, the “median weight gain from admission” value was 9.8%, the “patients requiring supplemental oxygen” value was “four” and the “patients requiring vasopressors in addition to IVF” value was “Five of the fourteen patients”. Also, the “% Weight Gain from baseline (kgs)” value in data set [1] (setting [5]) was 10.7% and 9.6% and 12.0% and 10.0% and 13.4% and 7.4% and 5.5% and 8.3% (2×) and 10.2% and 13.3% and 10.5% and 7.9% and 7.3%. For the same substance, in data set [2], the response rate is ~10%. In addition, in data set [2] (listed as IL2), the response rate is listed as 10-15%. Also, the “subjects developing dose-limiting vascular leak syndrome” value in data set [2] (subjects receiving HD IL-2) is “Up to 65%”. For the same substance, in data set [3] (HD IL-2 administration), the “patients in whom Ang 2 levels rose” value was 14/14. Further, the “Peak Ang 2” value in data set [3] (setting [5]) is 6.9 ng/ml and 31.4 ng/ml (2×) and 18.2 ng/ml and 51.9 ng/ml and 22.3 ng/ml and 52.6 ng/ml and 41.8 ng/ml and 30.0 ng/ml and 40.0 ng/ml and 29.4 ng/ml and 28.1 ng/ml and 26.5 ng/ml and 12.6 ng/ml. Moreover, in data set [3] (n=4, post-IL-2 infusion), the “serum Ang-2 following HD IL-2 therapy” value is 27.14 ± 4.06 ng/mL. In addition, in data set [3] (one patient, 5-day infusion, day 6), the “peak serum Ang-2” value came to 48.59 ng/mL. In addition, the “serum Ang-2 after decline over 24 hours” value in data set [3] (one patient, day 7) worked out at 19.21 ng/mL. Further, the “average post treatment Ang-2 level” value in data set [3] (pilot study, one day after completion of IL-2 therapy) is 25 ng/mL. Further, the “trend of free VEGF during infusion” value in data set [4] is on record as “no trend”.
